Experimental data from PubChem BioAssay AID434987 (Southern Research Specialized Biocontainment Screening …, 2010).
The source made the active and inactive calls. The rule behind the calls is not given here.

Test system: M. tuberculosis H37Rv growth inhibition with meropenem
Experiment: dose response, H37Rv, with and without meropenem (AID 434987);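 note: growth over 7 days at 37 °C before Alamar Blue read on day 9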

`CCCCCCCCCCCCCCCC[N+](C)(C)CCN(Cc1ccc(OC)cc1)c1ncccn1` was tested, and the IC50 was inactive: 2.83 µM, the IC50 (M. tuberculosis H37Rv growth inhibition, measured here: IC50 without meropenem) was 2.86 µM and the IC90 (M. tuberculosis H37Rv growth inhibition, measured here: IC90 without meropenem) was 3.25 µM. It also gave an IC90 (measured here: IC90 with meropenem) of 3.09 µM.
